Measurements from patent US20260317384A1, “SMALL MOLECULE HUMANIN MIMETICS” (The Regents of the University Of California, priority 2023, published 2026).

The chains behind the UniProt entries cited, without tags or fusion partners. Residues count along the entry.
UniProt P40189, 23-918 limits assumed: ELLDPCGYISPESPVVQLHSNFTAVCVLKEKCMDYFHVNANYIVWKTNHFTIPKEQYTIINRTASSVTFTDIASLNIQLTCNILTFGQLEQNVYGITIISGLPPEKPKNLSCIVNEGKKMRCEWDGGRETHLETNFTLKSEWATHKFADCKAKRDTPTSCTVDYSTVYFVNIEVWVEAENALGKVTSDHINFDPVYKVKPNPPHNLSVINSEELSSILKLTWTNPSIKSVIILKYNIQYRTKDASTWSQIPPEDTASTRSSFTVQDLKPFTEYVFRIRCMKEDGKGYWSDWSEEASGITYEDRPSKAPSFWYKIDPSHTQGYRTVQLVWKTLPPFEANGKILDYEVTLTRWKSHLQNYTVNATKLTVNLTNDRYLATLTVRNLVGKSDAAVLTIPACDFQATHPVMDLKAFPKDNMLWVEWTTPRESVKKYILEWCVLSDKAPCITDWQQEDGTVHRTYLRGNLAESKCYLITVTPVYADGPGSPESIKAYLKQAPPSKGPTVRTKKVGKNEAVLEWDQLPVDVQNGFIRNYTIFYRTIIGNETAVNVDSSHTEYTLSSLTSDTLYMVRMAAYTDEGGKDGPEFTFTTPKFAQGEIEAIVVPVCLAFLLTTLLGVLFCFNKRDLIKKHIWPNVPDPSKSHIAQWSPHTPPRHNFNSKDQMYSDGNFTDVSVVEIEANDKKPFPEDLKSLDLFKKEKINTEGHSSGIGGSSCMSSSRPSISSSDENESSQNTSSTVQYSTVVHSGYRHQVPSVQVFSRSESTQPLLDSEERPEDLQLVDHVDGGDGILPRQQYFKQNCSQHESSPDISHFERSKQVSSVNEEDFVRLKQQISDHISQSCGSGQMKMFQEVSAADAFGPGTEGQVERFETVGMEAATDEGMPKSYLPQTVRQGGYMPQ

Biological target: gp130 receptor (Homo sapiens, UniProt P40189)
Experiment: p-gp130 (p-Tyr) ELISA, HTS validation and dose response in U87-MG cells
Settings: read-out: EC50 (p-gp130 enhancement), FIG. 6 screening of analogs
Excerpt: An ELISA assay for the evaluation of the p-gp130 levels was developed. This was a commercial ELISA—DuoSet ELISA from R&D systems (cat #DYC3407-2) and detected the tyrosine phosphorylation of gp130. […] In addition, a commercially available p-AKT (1,2,3) AlphaLISA kit was used (PE cat #ALSU-PAKT-B-HV) for the HTS assay.
Small molecules that act as HN mimetics represent a new class of AD therapeutics. Through screening, validated hits that increase both p-gp-130 and p-Akt levels were identified. Human glioblastoma cells were used, U87-MG. Several hits that enhance p-gp 130 were identified as well as several compounds that can increase p-AKT (FIG. 3).
Into a 96 well plate was added 99 μL of warm DMEM/F12 without FBS, then 1 uL of compounds at 1 mM were loaded into the96 well plate. These generated the compounds at 2×. Into a 96 well plate was added IL6/IL6R solution to achieve 6.6×10−4 mg/mL and 3.3×10−4 mg/mL respectively, this is 2× concentration. For this, primary EL6 stock (0.1 mg/mL) was diluted150-fold and IL6R stock (0.1 mg/mL) 300-fold to treat cells with final concentration of 6.6×10−4 mg/mL and 3.3×10−4 mg/mL respectively. 10 ml of Sample Diluent Concentrate 2 (2X)(Part #895891/DYC002)+10 ml ddH2O+200 ul of 100 mM activated Na3VO4 (aliquots at −20C)+20 ul of 10 mg/ml aprotinin (stock at 4C)+20 ul of 10 mg/ml leupeptin (aliquots at −20C)+200 ul PIC-protected from light. […]

SMILES: CCC(=O)Nc1ccc2nc(C)n(-c3cccc(Br)c3)c(=O)c2c1
- EC50: < 100 nM
